Test results from PubChem BioAssay AID651687 (Broad Institute, 2012).
The list shows a part of the results, in another mix than the full data. Some structures show a salt or complex split into parts, the way the source records it. Calls of active or inactive are those of the source.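 Rule for the calls: active = every replicate shows inhibition of at least 40%; inconclusive = mean inhibition at least 40% but some replicate below; inactive = the rest.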

assay: inhibitors of PGC1a acetylation signal, primary screen, cell-based, U2OS, AlphaScreen, inhibitor mode (AID 651687); details: AlphaScreen anti-acetyl-lysine, at 15.6 µM, hits give high values, with virally co-expressed GCN5 acetyltransferase;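 note: 0% = neutral control wells and 100% = positive control wells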

Structure (SMILES)	inhibition
COc1ccccc1OP(C)(=O)Nc1ccc(C)c(C)c1 (stereo not drawn)	inactive: -8.49%
Cc1cc(C)cc(OP(C)(=O)Nc2cccc(C(F)(F)F)c2)c1 (stereo not drawn)	inactive: -1.91%
O=C1C(O)=C([N+](=O)[O-])C(=O)C(O)=C1[N+](=O)[O-]	inactive: 5.12%
COc1ccccc1OP(C)(=O)Nc1ccc(C)cc1C (stereo not drawn)	inactive: -5.2%
CP(=O)(Nc1ccccn1)Oc1ccccc1 (stereo not drawn)	inactive: -17.5%
CCc1ccc(OP(C)(=O)O)cc1	inactive: -1.18%
O=[N+]([O-])c1cc([N+](=O)[O-])c(Nc2ccccn2)c([N+](=O)[O-])c1	inactive: 6.39%
COc1ccc(OP(C)(=O)Nc2ccccn2)cc1 (stereo not drawn)	inactive: 8.72%
CN(C)CCOC(=O)C(O)(c1ccccc1)C1CCCC1 (stereo not drawn)	inactive: 0.135%
COc1ccccc1OP(C)(=O)Nc1ccc(Br)cc1 (stereo not drawn)	inactive: -3.86%
COc1ccccc1OP(C)(=O)Nc1ccccc1Br (stereo not drawn)	inactive: 0.073%
CC(C)(C)c1ccc(OP(C)(=O)O)cc1	inactive: 8.62%
CP(=O)(Nc1ccc(Cl)cc1)Oc1ccc(F)cc1 (stereo not drawn)	inactive: 0.591%
O=C(OCCCN1CCCC1)C(O)(c1ccccc1)C1CCCCC1 (stereo not drawn)	inactive: -4.07%
COc1ccccc1OP(C)(=O)Nc1c(C)n(C)n(-c2ccccc2)c1=O (stereo not drawn)	inactive: 2.61%
CCc1ccc(OP(C)(=O)Nc2cccnc2)cc1 (stereo not drawn)	inactive: 9.38%
CP(=O)(Oc1ccccc1)N1CCOC1=O (stereo not drawn)	inactive: 4.24%
COc1ccc(OP(C)(=O)Nc2ccc(Br)cc2)cc1 (stereo not drawn)	inactive: -2.27%
CCN(CC)CC(O)COC(=O)C(O)(c1ccccc1)C1CCCCC1 (stereo not drawn)	inactive: -7.95%
CCOC(=O)c1ccc(NP(C)(=O)Oc2ccc(Cl)cc2)cc1 (stereo not drawn)	inactive: -6.82%
CP(=O)(OC12CC3CC(CC(C3)C1)C2)OC12CC3CC(CC(C3)C1)C2	inactive: -4.57%
Cc1c(C(c2ccc3c(c2)OCO3)c2c(C)n(C)n(-c3ccccc3)c2=O)c(=O)n(-c2ccccc2)n1C.O=[N+]([O-])c1cc([N+](=O)[O-])c(O)c([N+](=O)[O-])c1	inactive: -9.48%
Cc1cc(-c2cccc3ccccc23)c(C)cn1.O=[N+]([O-])c1cc([N+](=O)[O-])c(O)c([N+](=O)[O-])c1	inactive: -2.23%

Structure (SMILES)	inhibition
CN(C)CCOC(=O)C(O)(c1ccccc1)C1CCCCC1 (stereo not drawn)	inactive: 2.32%
COc1ccc(NP(C)(=O)Oc2ccccc2OC)cc1 (stereo not drawn)	inactive: 17.9%
COc1ccc(OP(C)(=O)Nc2cccc(Br)c2)cc1 (stereo not drawn)	inactive: 11.9%
Cc1ccccc1NP(C)(=O)Nc1ccccc1C	inactive: 6.39%
CP(=O)(Nc1ccc2c(c1)OCCO2)Oc1ccccc1 (stereo not drawn)	inactive: 13.5%
CCOP(C)(=S)SCC(=O)NC(C)(CC)C(=O)O (stereo not drawn)	inactive: -12.6%
CP(=O)(Nc1ccc(SC(F)(F)F)cc1)Oc1ccc(F)cc1 (stereo not drawn)	inactive: 8.13%
COc1ccc2c(c1O)-c1c(O)c(OC)cc3c1[C@H](C2)[N+](C)(C)CC3.O=[N+]([O-])c1cc([N+](=O)[O-])c([O-])c([N+](=O)[O-])c1[O-]	inactive: 12.7%
CP(=O)(Nc1ccccc1F)Oc1ccccc1 (stereo not drawn)	inactive: 7.82%
O=[N+]([O-])c1cc([N+](=O)[O-])c(Nc2ccc(Cl)cc2)c([N+](=O)[O-])c1	inactive: 6.63%
CP(=O)(Nc1ccccc1)Oc1ccc(F)cc1 (stereo not drawn)	inactive: -3.51%
O=[N+]([O-])c1cc([N+](=O)[O-])c(OC2CCCCC2O)c([N+](=O)[O-])c1 (stereo not drawn)	inactive: 6.28%
CCCCCOc1ccc(NP(C)(=O)Oc2ccc(Cl)cc2Cl)cc1 (stereo not drawn)	inactive: -3.88%
Cc1c([N+](=O)[O-])cc([N+](=O)[O-])c(Br)c1[N+](=O)[O-]	inactive: -0.105%
CCN(CC)CCCOC(=O)C(O)(c1ccccc1)C1CCCCC1 (stereo not drawn)	inactive: -1.44%
COc1ccc(OP(C)(=O)Nc2ccc(SC(F)(F)F)cc2)cc1 (stereo not drawn)	inactive: -10.1%
CC1=NCCc2c1[nH]c1ccccc21.O=[N+]([O-])c1cc([N+](=O)[O-])c(O)c([N+](=O)[O-])c1	inactive: -4.31%
O=C(O)c1cccc(Nc2c([N+](=O)[O-])cc([N+](=O)[O-])cc2[N+](=O)[O-])c1	inactive: 2.15%
Cc1ccc(C)c(NP(C)(=O)Oc2ccccc2)c1 (stereo not drawn)	inactive: 5.54%
Cc1cc(C)cc(OP(C)(=O)Nc2ccccn2)c1 (stereo not drawn)	inactive: 4.99%
CP(=O)(Nc1cccc(Br)c1)Oc1ccccc1 (stereo not drawn)	inactive: -22.2%
Cc1cc(C)cc(OP(C)(=O)Nc2ccc(C)cc2C)c1 (stereo not drawn)	inactive: 1.39%
COc1ccccc1OP(C)(=O)Nc1cccc(Br)c1 (stereo not drawn)	inactive: -6.08%

Structure (SMILES)	inhibition
O=[N+]([O-])c1cc([N+](=O)[O-])c(-c2cnn(-c3ccccc3)c2)c([N+](=O)[O-])c1	inactive: 10.8%
CN(Cc1cccnc1)C(=O)COc1ccc(Cl)c(Cl)c1.O=[N+]([O-])c1cc([N+](=O)[O-])c(O)c([N+](=O)[O-])c1	inactive: 0.431%
O=[N+]([O-])c1cc([N+](=O)[O-])c(-n2nnc3ccccc32)c([N+](=O)[O-])c1	inactive: -2.95%
CCCOc1ccc(NP(C)(=O)Oc2ccc(Cl)cc2)cc1 (stereo not drawn)	inactive: 72.1%
COc1ccccc1OP(C)(=O)Nc1c(C)cccc1C (stereo not drawn)	inactive: 10.2%
CCOC(=O)C(CC)C1=NC(C)(C)Cc2ccccc21.O=[N+]([O-])c1cc([N+](=O)[O-])c(O)c([N+](=O)[O-])c1 (stereo not drawn)	inactive: 4.34%
CC1=C2N=C(C=C3N=C(C(C)=C4[N-][C@@](C)([C@@H]5N=C1[C@](C)(CCC(=O)NC[C@@H](C)OP(=O)([O-])O[C@H]1[C@@H](O)[C@@H](n6cnc7cc(C)c(C)cc76)O[C@@H]1CO)[C@H]5CC(N)=O)[C@@](C)(CC(N)=O)[C@@H]4CCC(N)=O)[C@@](C)(CC(N)=O)[C@@H]3CCC(N)=O)C(C)(C)[C@@H]2CCC(N)=O.[C-]#N.[Co+3]	inactive: -2.84%
CP(=S)(Nn1cnnc1)Oc1ccccc1 (stereo not drawn)	inactive: 24.3%
CP(=O)(Nc1ccccn1)Oc1ccc(Cl)cc1 (stereo not drawn)	inactive: -16%
CCOC(=O)c1ccc(NP(C)(=O)Oc2ccc(OC)cc2)cc1 (stereo not drawn)	inactive: -6.63%
O=[N+]([O-])c1cc([N+](=O)[O-])c(O)c([N+](=O)[O-])c1.c1ccc(Oc2ccncc2)cc1	inactive: -9.84%
CCOP(C)(=S)SCC(=O)NC(C)C(=O)O (stereo not drawn)	inactive: 4.58%
CCc1ccc(OP(C)(=O)N2CCN(c3ccc([N+](=O)[O-])cc3)CC2)cc1 (stereo not drawn)	inactive: -2.13%
Cc1ccc(Nc2c([N+](=O)[O-])cc([N+](=O)[O-])cc2[N+](=O)[O-])cc1	inactive: -12.6%
CP(=O)(Nc1ccc(SC(F)(F)F)cc1)Oc1ccc(Cl)cc1 (stereo not drawn)	inactive: -8.74%
Cc1cc(C)cc(OP(C)(N)=O)c1 (stereo not drawn)	inactive: -6.41%
COc1ccc(OP(C)(=O)Nc2cccc(F)c2)cc1 (stereo not drawn)	inactive: -0.503%
COc1ccccc1OP(C)(=O)Nc1cc(Cl)ccc1C (stereo not drawn)	inactive: -5.91%
Cc1ccc(NP(C)(=O)Oc2ccccc2)c(C)c1 (stereo not drawn)	inactive: 48.1%
COc1ccccc1OP(C)(=O)Nc1ccc(C)cc1 (stereo not drawn)	inactive: 8.38%
CCOC(=O)c1ccc(NP(C)(=O)Oc2ccccc2)cc1 (stereo not drawn)	inactive: 24.3%
Cc1cccc(C)c1OP(C)(N)=O (stereo not drawn)	inactive: -3.92%
